Biological target: T1, 11b-HSD1 (Homo sapiens, UniProt P28845)
T1 construct: made in house; host or cells: E. coli DH10b-Tir
Experiment: in vitro enzymatic 11b-HSD1 dehydrogenase activity assay
Type: biochemical
Settings: 11b-HSD1 dehydrogenase assay; 10 μM each of cortisol and NADP+, 50 nM enzyme, 60 minutes at room temperature; reference point for this assay
Text: The activity of compounds as 11b-HSD1 inhibitors may be assayed in vitro, in vivo or in a cell line. Provided below is an in vitro enzymatic 11b-HSD1 dehydrogenase activity assay for activity against 11b-HSD1.
Purified 11b-HSD1 may be obtained as follows: Residues 24 to 292 of 11-β-hydroxysteroid dehydrogenase isoform 1 was amplified from IMAGE clone 5193867 (ATCC clone 7277078) using PCR with the primers hsd1—24-f: 5′-[…]-3′ (SEQ. ID No. 1) and hsd1-292-r: 5′-[…]-3′ (SEQ. ID No. 2). The resulting PCR product was topocloned into the pBAD-ThioE vector (Invitrogen) that was modified by inserting a DNA sequence that codes for […] at the cloning site and adapted for TOPOcloning PCR (Invitrogen). […]
The inhibitory properties of compounds relative to 11b-HSD1 may be determined using a white 384-well-plate format under the following reaction conditions: 50 mM Tris pH 7.5, 150 mM NaCl, 0.1 mM EDTA, 0.01% Brij35, 10 μM each of cortisol and NADP^+, 1% DMSO. Reaction product may be determined quantitatively by fluorescence intensity using a fluorescence plate reader (Molecular Devices Gemini) with a 340 nm excitation wavelength and a 460 nm emission wavelength. […]
IC50 values may be calculated by non-linear curve fitting of the compound concentrations and fluorescence intensities to the standard IC50 equation.

By UniProt entry, the sequences of proteins in these tests, tags left out. Residues count along the entry.
UniProt P28845, 24-292: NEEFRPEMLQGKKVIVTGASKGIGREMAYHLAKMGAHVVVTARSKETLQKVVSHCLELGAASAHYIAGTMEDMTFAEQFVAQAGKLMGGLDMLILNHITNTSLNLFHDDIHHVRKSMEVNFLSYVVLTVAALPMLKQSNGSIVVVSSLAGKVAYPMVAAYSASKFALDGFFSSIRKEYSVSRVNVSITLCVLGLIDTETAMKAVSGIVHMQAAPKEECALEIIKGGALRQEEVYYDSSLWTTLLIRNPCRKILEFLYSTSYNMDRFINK

## CC1(C)[C@@H](OC(=O)CCC(=O)O)CC[C@]2(C)[C@H]3C(=O)C=C4[C@@H]5C[C@@](C)(C(=O)O)CC[C@]5(C)CC[C@@]4(C)[C@]3(C)CC[C@@H]12 [carbenoxolone]
  IC50: 100 nM

— patent publication US7759339B2, “Hydroxysteroid dehydrogenase inhibitors” (Takeda San Diego, Inc., priority 2005, dated 2010)
